From patent US8791116B2, “Myosin light chain kinase inhibitor compounds, compositions and related methods of use” (Northwestern University, priority 2006, dated 2014)
Where two headings read alike, the source gives them in different places.

Protein sequences, listed by entry. Tags and fused reporters are not part of them. Residues count along the entry.
UniProt P53355, 1-285 limits assumed: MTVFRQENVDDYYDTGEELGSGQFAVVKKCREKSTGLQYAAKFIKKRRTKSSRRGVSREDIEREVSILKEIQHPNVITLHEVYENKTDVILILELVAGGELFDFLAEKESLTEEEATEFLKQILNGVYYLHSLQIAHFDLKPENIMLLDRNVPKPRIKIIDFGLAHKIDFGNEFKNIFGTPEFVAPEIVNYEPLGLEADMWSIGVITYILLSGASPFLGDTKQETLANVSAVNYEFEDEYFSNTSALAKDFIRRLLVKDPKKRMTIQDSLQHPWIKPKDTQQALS
UniProt Q15746, whole entry: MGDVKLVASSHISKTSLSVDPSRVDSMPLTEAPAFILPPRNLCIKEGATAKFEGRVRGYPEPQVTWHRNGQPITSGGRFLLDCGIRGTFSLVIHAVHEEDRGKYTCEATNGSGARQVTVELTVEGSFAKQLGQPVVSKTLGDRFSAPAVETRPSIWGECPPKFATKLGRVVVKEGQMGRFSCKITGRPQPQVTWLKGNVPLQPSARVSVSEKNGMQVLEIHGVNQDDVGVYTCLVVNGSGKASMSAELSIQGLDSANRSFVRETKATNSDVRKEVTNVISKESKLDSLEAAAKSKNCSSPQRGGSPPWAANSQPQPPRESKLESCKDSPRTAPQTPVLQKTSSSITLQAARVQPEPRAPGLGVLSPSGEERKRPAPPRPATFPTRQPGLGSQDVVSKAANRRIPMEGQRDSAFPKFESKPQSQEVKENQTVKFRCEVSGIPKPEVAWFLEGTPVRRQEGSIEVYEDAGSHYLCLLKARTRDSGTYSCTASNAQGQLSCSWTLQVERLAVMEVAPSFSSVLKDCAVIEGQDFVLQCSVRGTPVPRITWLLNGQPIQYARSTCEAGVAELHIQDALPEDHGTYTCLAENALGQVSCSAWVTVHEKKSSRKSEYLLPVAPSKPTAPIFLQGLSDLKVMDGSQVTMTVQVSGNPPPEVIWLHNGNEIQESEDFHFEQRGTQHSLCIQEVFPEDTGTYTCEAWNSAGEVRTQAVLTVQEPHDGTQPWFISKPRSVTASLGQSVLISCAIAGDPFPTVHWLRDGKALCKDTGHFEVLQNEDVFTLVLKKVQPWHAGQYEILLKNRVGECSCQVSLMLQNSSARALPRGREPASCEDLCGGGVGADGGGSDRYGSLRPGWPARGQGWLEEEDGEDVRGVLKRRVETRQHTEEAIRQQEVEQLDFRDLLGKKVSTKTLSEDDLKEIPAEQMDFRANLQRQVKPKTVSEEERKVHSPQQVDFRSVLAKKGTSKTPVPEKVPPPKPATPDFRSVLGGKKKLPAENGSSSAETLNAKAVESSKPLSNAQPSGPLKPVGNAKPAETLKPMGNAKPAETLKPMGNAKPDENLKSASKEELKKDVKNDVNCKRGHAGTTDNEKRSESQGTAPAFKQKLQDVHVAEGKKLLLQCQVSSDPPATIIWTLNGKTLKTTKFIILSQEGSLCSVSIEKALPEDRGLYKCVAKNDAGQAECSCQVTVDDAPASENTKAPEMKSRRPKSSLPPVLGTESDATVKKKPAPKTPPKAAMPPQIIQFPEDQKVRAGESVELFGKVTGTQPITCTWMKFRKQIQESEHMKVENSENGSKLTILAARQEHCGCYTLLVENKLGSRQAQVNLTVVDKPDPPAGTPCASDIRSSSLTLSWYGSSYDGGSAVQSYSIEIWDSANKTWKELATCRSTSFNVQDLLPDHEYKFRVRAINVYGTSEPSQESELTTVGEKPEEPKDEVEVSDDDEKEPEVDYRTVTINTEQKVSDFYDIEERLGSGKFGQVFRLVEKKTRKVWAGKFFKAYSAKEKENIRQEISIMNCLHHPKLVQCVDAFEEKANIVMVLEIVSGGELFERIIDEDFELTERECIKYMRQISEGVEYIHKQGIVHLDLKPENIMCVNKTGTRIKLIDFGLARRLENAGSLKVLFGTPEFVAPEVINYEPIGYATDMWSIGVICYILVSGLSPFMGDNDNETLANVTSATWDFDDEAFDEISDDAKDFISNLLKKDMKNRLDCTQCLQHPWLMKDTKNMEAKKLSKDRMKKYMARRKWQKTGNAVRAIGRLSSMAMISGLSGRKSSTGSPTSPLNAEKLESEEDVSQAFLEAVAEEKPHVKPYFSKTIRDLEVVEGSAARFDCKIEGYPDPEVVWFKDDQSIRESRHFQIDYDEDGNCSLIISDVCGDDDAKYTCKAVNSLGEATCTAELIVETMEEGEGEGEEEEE

Tests used:
protein kinase C (PKC) = assay: Kinase inhibitory activity against protein kinase C; conditions: read-out: PKC (μM), in vitro inhibition of kinases
Protocol: MLCK inhibitory activity screens were done by incubation with 20 μM peptide substrate (KKRPQRATSNVFAM-NH2), 200 μM ATP and [^32P]-ATP (2.5 μCi per reaction) in assay buffer (50 mM HEPES, pH 7.5 with KOH, 5 mM MgCl2, 0.15 M KCl, 0.015 M NaCl, 1 mM DTT) with 0.1 mM CaCl2 and 1 μM calmodulin (New England Biolabs, MA). [T. J. Lukas, S. Mirzoeva, U. Slomczynska and D. M. Watterson, J. Med. Chem. 42 (1999) 910-9.] Reactions were initiated by addition of MLCK protein and incubated for 20 min at 25° C. Reactions were spotted onto P-81 paper (Whatman, Clifton, N.J.), washed with 75 mM H3PO4 and 95% EtOH, and quantified by scintillation counting in EcoScintO (National Diagnostics, Atlanta, Ga.). Testing of compounds for kinase inhibitory activity against the structurally and functionally related kinases death-associated protein kinase (DAPK) and the signal transduction pathway relevant kinases protein kinase A (PKA) and protein kinase C (PKC) was performed as described by using the corresponding peptide substrates and assay conditions. […]

[1] = molecular target: death-associated protein kinase (DAPK) (Homo sapiens, UniProt P53355); assay: Kinase inhibitory activity against death-associated protein kinase; assay type: biochemical; conditions: read-out: DAPK (μM), in vitro inhibition of kinases
Protocol: (§1) MLCK inhibitory activity screens were done by incubation with 20 μM peptide substrate ([…]), 200 μM ATP and [^32P]-ATP (2.5 μCi per reaction) in assay buffer (50 mM HEPES, pH 7.5 with KOH, 5 mM MgCl2, 0.15 M KCl, 0.015 M NaCl, 1 mM DTT) with 0.1 mM CaCl2 and 1 μM calmodulin (New England Biolabs, MA). [T. J. Lukas, S. Mirzoeva, U. Slomczynska and D. M. Watterson, J. Med. Chem. 42 (1999) 910-9.] Reactions were initiated by addition of MLCK protein and incubated for 20 min at 25° C. Reactions were spotted onto P-81 paper (Whatman, Clifton, N.J.), washed with 75 mM H3PO4 and 95% EtOH, and quantified by scintillation counting in EcoScintO (National Diagnostics, Atlanta, Ga.). Testing of compounds for kinase inhibitory activity against the structurally and functionally related kinases death-associated protein kinase (DAPK) and the signal transduction pathway relevant kinases protein kinase A (PKA) and protein kinase C (PKC) was performed as described by using the corresponding peptide substrates and assay conditions. [[…]. Guo, […]. Bourguignon, […]. Van Eldik and D. M. Watterson, J. Med. Chem 45 (2002) 563-6; A. M. Schumacher, […] and D. M. Watterson, Biochemistry 43 (2004) 8116-24; […]. Schumacher and D. M. Watterson, Pharmacol Ther 93 (2002) 217-24; […]. Schumacher, C. Weiss, M. Egli and D. M. Watterson, J. Biol. Chem. 276 (2001) 38956-65; D. M. Watterson, S. Mirzoeva, L. Guo, […]. […]

MLCK [2] = molecular target: T1, MLCK (Homo sapiens, UniProt Q15746); conditions: read-out: MLCK (μM), in vitro inhibition of kinases; marked ** Previously reported; cited from earlier work
protein kinase A (PKA) = protein kinase A (PKA) (Homo sapiens, UniProt P17612); assay: Kinase inhibitory activity against protein kinase A; assay type: biochemical; conditions: read-out: PKA (μM), in vitro inhibition of kinases
Protocol: as §1

MLCK [3] = molecular target: T1, MLCK; assay: MLCK inhibitory activity screen (32P-ATP peptide substrate phosphorylation); assay type: biochemical
Protocol: as §1

Structure (SMILES)	IC50 (protein kinase C (PKC)) [µM]	IC50 [1] [µM]	IC50 (MLCK [2]) [µM]	IC50 (protein kinase A (PKA)) [µM]	MLCK inhibitory activity relative to parent compound (in words) (MLCK [3]; in vitro, versus compound 6)	IC50 (MLCK [3]; read-out: MLCK (μM), in vitro inhibition of kinases, 20 μM peptide substrate, 200 μM ATP, 20 min at 25° C.) [µM]
N=c1ccc(Cl)nn1CCCCCCCCCCC(=O)Nc1ccc(-c2ccccc2)nn1	> 100	> 100	5	> 100	–	–
CN1CCCC1CCNC(=O)CCCCCCCn1nc(-c2ccccc2)ccc1=N (stereo not shown)	–	> 100	–	–	diminished the inhibitor activity	> 100
